Results published in patent publication EP4831173A1, “TYK2 INHIBITOR AND USE THEROF” (dated 2026).

Amino acid sequences for entries named in this document (tags omitted). Residues count along the entry.
UniProt P29597, 589-875 limits assumed: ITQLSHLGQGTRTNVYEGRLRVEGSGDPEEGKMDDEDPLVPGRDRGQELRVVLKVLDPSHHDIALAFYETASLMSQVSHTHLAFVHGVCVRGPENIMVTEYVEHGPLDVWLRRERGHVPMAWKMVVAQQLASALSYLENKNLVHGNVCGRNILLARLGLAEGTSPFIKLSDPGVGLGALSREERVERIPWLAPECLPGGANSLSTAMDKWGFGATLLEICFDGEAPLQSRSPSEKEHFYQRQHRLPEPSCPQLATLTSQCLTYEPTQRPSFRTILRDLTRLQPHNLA
UniProt P29597, whole entry: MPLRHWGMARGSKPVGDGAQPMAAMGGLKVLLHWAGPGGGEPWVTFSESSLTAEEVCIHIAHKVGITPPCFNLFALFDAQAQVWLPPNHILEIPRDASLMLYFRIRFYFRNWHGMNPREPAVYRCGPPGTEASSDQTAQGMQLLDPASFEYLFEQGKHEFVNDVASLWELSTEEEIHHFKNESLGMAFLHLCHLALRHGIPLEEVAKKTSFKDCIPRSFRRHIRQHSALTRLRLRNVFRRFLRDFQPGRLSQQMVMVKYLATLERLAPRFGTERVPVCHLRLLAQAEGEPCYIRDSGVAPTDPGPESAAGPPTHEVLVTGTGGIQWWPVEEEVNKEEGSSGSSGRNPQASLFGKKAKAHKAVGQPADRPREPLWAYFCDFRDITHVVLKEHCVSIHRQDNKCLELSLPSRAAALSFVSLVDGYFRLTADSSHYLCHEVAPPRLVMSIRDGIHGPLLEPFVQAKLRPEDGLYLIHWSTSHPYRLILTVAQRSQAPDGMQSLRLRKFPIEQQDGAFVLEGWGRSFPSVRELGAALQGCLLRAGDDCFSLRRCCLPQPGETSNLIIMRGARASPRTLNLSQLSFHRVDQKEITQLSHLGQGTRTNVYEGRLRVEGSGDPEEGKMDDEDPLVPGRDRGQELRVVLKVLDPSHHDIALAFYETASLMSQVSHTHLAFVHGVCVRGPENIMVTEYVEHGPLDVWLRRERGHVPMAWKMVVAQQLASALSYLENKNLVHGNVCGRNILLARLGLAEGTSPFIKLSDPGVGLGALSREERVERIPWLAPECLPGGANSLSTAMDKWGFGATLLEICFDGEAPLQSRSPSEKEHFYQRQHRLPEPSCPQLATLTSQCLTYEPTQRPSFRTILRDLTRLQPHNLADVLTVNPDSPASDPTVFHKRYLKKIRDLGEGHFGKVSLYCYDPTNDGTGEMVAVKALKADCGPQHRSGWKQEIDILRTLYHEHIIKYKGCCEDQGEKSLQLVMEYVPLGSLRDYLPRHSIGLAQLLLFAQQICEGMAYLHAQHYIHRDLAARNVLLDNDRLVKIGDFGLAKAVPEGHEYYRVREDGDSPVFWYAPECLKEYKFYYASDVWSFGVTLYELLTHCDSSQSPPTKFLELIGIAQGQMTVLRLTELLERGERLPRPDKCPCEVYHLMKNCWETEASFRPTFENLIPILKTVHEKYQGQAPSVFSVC
UniProt P23458, whole entry partner: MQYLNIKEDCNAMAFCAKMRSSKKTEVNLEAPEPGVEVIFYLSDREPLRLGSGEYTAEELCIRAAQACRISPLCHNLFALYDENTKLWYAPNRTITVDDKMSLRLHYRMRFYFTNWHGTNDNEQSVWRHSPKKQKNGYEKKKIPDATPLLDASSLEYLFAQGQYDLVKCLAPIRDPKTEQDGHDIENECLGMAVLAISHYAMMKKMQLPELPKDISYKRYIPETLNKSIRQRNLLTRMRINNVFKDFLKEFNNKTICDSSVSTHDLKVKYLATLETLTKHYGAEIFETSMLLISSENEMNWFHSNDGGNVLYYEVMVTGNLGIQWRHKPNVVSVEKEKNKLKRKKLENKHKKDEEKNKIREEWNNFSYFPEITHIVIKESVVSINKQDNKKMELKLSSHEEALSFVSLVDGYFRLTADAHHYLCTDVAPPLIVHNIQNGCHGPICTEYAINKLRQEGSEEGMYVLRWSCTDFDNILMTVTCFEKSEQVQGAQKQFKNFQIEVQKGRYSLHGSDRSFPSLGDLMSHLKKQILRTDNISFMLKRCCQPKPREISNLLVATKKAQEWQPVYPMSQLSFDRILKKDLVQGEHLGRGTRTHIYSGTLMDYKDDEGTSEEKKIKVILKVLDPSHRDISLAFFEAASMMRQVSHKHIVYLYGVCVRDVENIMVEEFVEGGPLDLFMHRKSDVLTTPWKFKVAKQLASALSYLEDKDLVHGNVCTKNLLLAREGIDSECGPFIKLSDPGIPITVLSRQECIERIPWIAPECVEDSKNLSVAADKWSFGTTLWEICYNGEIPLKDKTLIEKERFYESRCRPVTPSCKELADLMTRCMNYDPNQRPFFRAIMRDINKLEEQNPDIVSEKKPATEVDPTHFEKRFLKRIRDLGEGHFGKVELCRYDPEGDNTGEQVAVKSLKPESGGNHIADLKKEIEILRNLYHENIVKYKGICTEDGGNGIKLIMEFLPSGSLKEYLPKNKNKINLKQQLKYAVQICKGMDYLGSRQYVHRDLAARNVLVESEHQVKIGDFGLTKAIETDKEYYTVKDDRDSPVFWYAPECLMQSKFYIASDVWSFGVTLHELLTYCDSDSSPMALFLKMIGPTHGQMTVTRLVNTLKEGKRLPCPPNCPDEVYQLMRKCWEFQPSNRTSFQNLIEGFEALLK

Legend:
TYK2 pseudokinase domain = TYK2 pseudokinase domain (Homo sapiens, UniProt P29597); test: TYK2 JH2 pseudokinase domain binding affinity, fluorescence polarization (BPS Bioscience inhibitor screening kit); details: read-out: TYK2 JH2 IC50; polarized fluorescence, 25°C, 1 hour
Experimental: Experimental Example 1: Analysis of domain binding affinity to TYK2 pseudokinase
In order analyze the binding affinity of a test compound to the TYK2 pseudokinase domain, a polarized fluorescence-based TYK2 JH2 Pseudokinase Domain Inhibitor Screening Assay Kit (BPS bioscience) was used. The evaluation of the compound was performed according to the manufacturer's protocol, and the method thereof is as follows:
The test compound or control compound (Deucravacitnib) was serially diluted in DMSO, and then diluted 1/10 with distilled water to prepare 10x compound solution. After mixing the compound solution with Probe 1 prepared with a binding reaction buffer (JH2 binding buffer), a reaction was performed at 25°C for 10 minutes. Next, the reaction was initiated by adding a TYK2 pseudokinase domain enzyme prepared with the binding reaction buffer. The reaction was performed in a black 384-well plate at 25 °C for 1 hour. Polarized fluorescence was measured using Synergy neo (BioTek Instruments, Inc.).

TYK2/JAK1 = TYK2/JAK1 (Homo sapiens, UniProt P29597); test: TYK2/JAK1 cell activity by IFNα2B stimulation, SEAP reporter in HEK-blue IFNα/β cells; details: HEK-blue IFNα/β cell line, human IFNα2B 1 U/mL, 24 hours, SEAP absorbance at 630 nm
Experimental: Experimental Example 3: Analysis of TYK2/JAKI cell activity by IFNα2B stimulation
An inhibition effect of TYK2/JAK1 activity of the test compound was analyzed using HEK-blue IFNα/β cell line (InvivoGen) that secretes SEAP (Secreted embryonic alkaline phosphatase) depending on the degree of cell stimulation. Cell culture and evaluation were performed according to the manufacturer's recommendations, and the method thereof is as follows: Cells cultured in a growth medium (Dulbecco's Modified Eagle Medium, 10% Fetal bovine serum, 1% Penicillin-Streptomycin, 100 ug/mL Normocin, 10 mg/mL Blasticidin, […] Zeocin) were collected and resuspended in a test medium (DMEM, 10% FBS, 1% Penicillin-Streptomycin), and 3.5x10^4 cells (160 uL) were dispensed into each well of a 96-well plate. After culturing for 24 hours in a 37°C CO2 incubator, 20 uL of a test compound or control compound (Deucravacitinib) diluted in the test medium was added, and then incubated at 37°C for 1 hour and 30 minutes. Next, 20 uL of human IFNα2B recombinant protein (PBL assay science) prepared with the test medium was added to each well (final concentration 1 U/mL) and then incubated at 37°C for 24 hours. 20 uL and 180 uL of cell supernatant were mixed with a QUANTI-blue reagent (InvivoGen) and then reacted at 37°C for 20-30 minutes. An absorbance at 630 nm was measured using Synergy neo (BioTek Instruments, Inc.). […] [Table 3] Result of TYK2/JAK1 cell activity by IFNα2B stimulation test

| IC50 (TYK2 pseudokinase domain) [nM] | IC50 (TYK2/JAK1) [nM] | SMILES |
| --- | --- | --- |
| 182 | – | CC(=O)Nc1cc2c(-c3ccc(=O)n(C4(C)COC4)n3)cn(C)c2cn1 |
| 31 | 50 to 500 | CC(=O)Nc1cc2c(-c3cc(OCc4ccccc4)c(=O)n(C(C)C)n3)cn(C)c2cn1 |
| 57 | < 50 | CC(=O)Nc1cc2c(-c3cc(OCC(C)(F)F)c(=O)n([C@@H](C)C(F)(F)F)n3)cn(CC(F)F)c2cn1 |
| 42 | < 50 | CC(=O)Nc1cc2c(-c3cc(OCC(C)(F)F)c(=O)n(C(C)C(F)(F)F)n3)cn(C)c2cn1 (centres unmarked) |
| 18 | < 50 | CC(=O)Nc1cc2c(-c3cc(C4CC4)c(=O)n(C4(C)CCOC4)n3)cn(C3CC(C#N)C3)c2cn1 (centres unmarked) |
| 37 | < 50 | CCC1(n2nc(-c3cn(C)c4cnc(NC(N)=O)cc34)cc(C)c2=O)CCOC1 (centres unmarked) |
| 26 | < 50 | CC(=O)Nc1cc2c(-c3cc(OCC(F)F)c(=O)n([C@@H](C)C(F)(F)F)n3)cn(C)c2cn1 |
| 111 | – | CC(=O)Nc1cc2c(-c3ccc(=O)n(C4(C)CCOC4)c3)cn(C3CC(C#N)C3)c2cn1 (centres unmarked) |
| 27 | 50 to 500 | COC1CN(c2cc(-c3cn(C4CC4)c4cnc(NC(C)=O)cc34)nn(C(C)C)c2=O)C1 |
| 144 | – | CCn1cc(-c2cc(OCC(F)F)c(=O)n([C@@H](C)C(F)(F)F)n2)c2cc(NC(=O)NC)ncc21 |
| 105 | 50 to 500 | CC(=O)Nc1cc2c(-c3cc(OCC(C)(F)F)c(=O)n([C@@H](C)C(F)(F)F)n3)cn(CC3(C)COC3)c2cn1 |
| 33 | < 50 | COCC1CN(c2cc(-c3cn(C)c4cnc(NC(C)=O)cc34)nn(C3CCC3)c2=O)C1 |
| 61 | < 50 | CC(=O)Nc1cc2c(-c3cc(OCC(F)F)c(=O)n(C(C)C(F)(F)F)n3)cn(C3CC3)c2cn1 (centres unmarked) |
| 20 | < 50 | CC(C)COc1cc(-c2cn(C)c3cnc(NC(N)=O)cc23)nn(C(C)C)c1=O |
| 122 | 50 to 500 | CO[C@H]1CCN(c2cc(-c3cn(C)c4cnc(NC(C)=O)cc34)nn(C3(C)CCC3)c2=O)C1 |
| 184 | < 50 | COC1CN(c2cc(-c3cn(C4CC5(C4)CC(F)(F)C5)c4cnc(NC(C)=O)cc34)nn([C@@H](C)C(F)(F)F)c2=O)C1 |
| 27 | < 50 | CCC1(n2nc(-c3cn(C)c4cnc(NC(C)=O)cc34)cc(OCC(C)C)c2=O)CCC1 |
| 30 | < 50 | CC(=O)Nc1cc2c(-c3cc(OCC(C)C)c(=O)n(C(C)C)n3)cn(C3CC(C#N)C3)c2cn1 (centres unmarked) |
| 21 | < 50 | CCC1(n2nc(-c3cn(C)c4cnc(NC(C)=O)cc34)cc(OC[C@@H](C)OC)c2=O)CCC1 |
| 24 | < 50 | CC(=O)Nc1cc2c(-c3cc(OCC(C)(F)F)c(=O)n([C@@H](C)C(F)(F)F)n3)cn(CCCC#N)c2cn1 |

| IC50 (TYK2 pseudokinase domain) [nM] | IC50 (TYK2/JAK1) [nM] | SMILES |
| --- | --- | --- |
| 40 | – | CC(=O)Nc1cc2c(-c3cc(OCC(C)(F)F)c(=O)n([C@@H](C)C(F)(F)F)n3)cn(CC3COC3)c2cn1 |
| 121 | > 500 | COCC(C)(C)n1nc(-c2cn(C)c3cnc(NC(C)=O)cc23)ccc1=O |
| 78 | < 50 | COC1CN(c2cc(-c3cn(C4CC4)c4cnc(NC(C)=O)cc34)nn(C(C)C(F)(F)F)c2=O)C1 (centres unmarked) |
| 30 | 50 to 500 | CC(=O)Nc1cc2c(-c3cc(N4CC5(COC5)C4)c(=O)n(C4(C)CCC4)n3)cn(C)c2cn1 |
| 53 | < 50 | CC(=O)Nc1cc2c(-c3cc(N4CCC5(COC5)C4)c(=O)n(C4(C)CCC4)n3)cn(C3CCC3)c2cn1 |
| 35 | < 50 | CC(=O)Nc1cc2c(-c3cc(N4CC(OC(C)C)C4)c(=O)n([C@@H](C)C(F)(F)F)n3)cn(C3CC3)c2cn1 |
| 33 | 50 to 500 | CC(=O)Nc1cc2c(-c3cc(OCC(C)C)c(=O)n(C4(C)CCCC4)n3)cn(C)c2cn1 |
| 60 | – | CC(=O)Nc1cc2c(cn1)c(C)cn2-c1ccc(=O)n(C2(C)CCOC2)n1 (centres unmarked) |
| 200 | 50 to 500 | C=C(C)Cn1cc(-c2cc(N3CC(OC)C3)c(=O)n([C@@H](C)C(F)(F)F)n2)c2cc(NC(C)=O)ncc21 |
| 31 | 50 to 500 | COCCn1cc(-c2cc(OCC(C)(F)F)c(=O)n([C@@H](C)C(F)(F)F)n2)c2cc(NC(C)=O)ncc21 |
| 30 | 50 to 500 | COC1CN(c2cc(-c3cn(C)c4cnc(NC(C)=O)cc34)nn(C(C)(C)C)c2=O)C1 |
| 46 | 50 to 500 | CC(=O)Nc1cc2c(-c3cc(OCC(C)(F)F)c(=O)n([C@@H](C)C(F)(F)F)n3)cn(CCC#N)c2cn1 |
| 20 | < 50 | CCC1(n2nc(-c3cn(C4CC(C#N)C4)c4cnc(NC(C)=O)cc34)cc(C)c2=O)CCOC1 (centres unmarked) |
| 66 | < 50 | COC1CN(c2cc(-c3cn(C4CCC4)c4cnc(NC(C)=O)cc34)nn(C3(C)CCC3)c2=O)C1 |
| 53 | < 50 | CCn1cc(-c2cc(OCC(F)F)c(=O)n(C(C)C(F)(F)F)n2)c2cc(NC(C)=O)ncc21 (centres unmarked) |
| 36 | < 50 | [2H]C([2H])([2H])C(=O)Nc1cc2c(-c3cc(N4CC(OC)C4)c(=O)n([C@@H](C)C(F)(F)F)n3)cn(C)c2cn1 |
| 61 | – | CC(=O)Nc1cc2c(-c3cc(C4CC4)c(=O)n(C4CC(=O)C4)n3)cn(C3CC(C#N)C3)c2cn1 (centres unmarked) |
| 46 | < 50 | CC(=O)Nc1cc2c(-c3cc(N4CC(OC(C)C)C4)c(=O)n([C@@H](C)C(F)(F)F)n3)cn(C)c2cn1 |
| 68 | < 50 | CC(=O)Nc1cc2c(-c3cc(OCC4CCC4)c(=O)n(C(C)C(F)(F)F)n3)cn(C)c2cn1 (centres unmarked) |
| 14 | < 50 | CC(=O)Nc1cc2c(-c3cc(OCC(C)C)c(=O)n(C4CCC4)n3)cn(C)c2cn1 |

| IC50 (TYK2 pseudokinase domain) [nM] | IC50 (TYK2/JAK1) [nM] | SMILES |
| --- | --- | --- |
| 68 | 50 to 500 | CC(=O)Nc1cc2c(-c3cc(OCC(C)(F)F)c(=O)n([C@@H](C)C(F)(F)F)n3)cn(CCN3CCOCC3)c2cn1 |
| 47 | < 50 | COC1CN(c2cc(-c3cc(C)n4cnc(NC(C)=O)cc34)nn(C3(C)CCOC3)c2=O)C1 (centres unmarked) |
| 27 | < 50 | CCn1cc(-c2cc(OCC(F)F)c(=O)n([C@@H](C)C(F)(F)F)n2)c2cc(NC(=O)CO)ncc21 |
| 32 | < 50 | CC(=O)Nc1cc2c(-c3cc(OCCCF)c(=O)n([C@@H](C)C(F)(F)F)n3)cn(C)c2cn1 |
| 60 | – | Cn1cc(-c2ccc(=O)n(C3(C)CCOC3)n2)c2cc(NC(N)=O)ncc21 (centres unmarked) |
| 67 | – | CC(=O)Nc1cc2c(-c3cc(OCC(C)(F)F)c(=O)n([C@@H](C)C(F)(F)F)n3)cn([C@@H]3CCOC3)c2cn1 |
| 50 | < 50 | CC(=O)Nc1cc2c(-c3cc(OCC(F)(F)F)c(=O)n([C@@H](C)C(F)(F)F)n3)cn(C3CC3)c2cn1 |
| 83 | < 50 | COC1CN(c2cc(-c3cn(C)c4cnc(NC(C)=O)cc34)nn(C3(C)CCC3)c2=O)C1 |
| 53 | < 50 | CC(=O)Nc1cc2c(-c3cc(OCC(C)(F)F)c(=O)n([C@@H](C)C(F)(F)F)n3)cn(C3C=C(F)C3)c2cn1 (some centres unmarked) |
| 32 | < 50 | COC1CN(c2cc(-c3cn(C)c4cnc(NC(C)=O)cc34)nn(C3(C)CCCC3)c2=O)C1 |
| 130 | < 50 | CO[C@H]1CCN(c2cc(-c3cn(C4CCC4)c4cnc(NC(C)=O)cc34)nn(C3(C)CCC3)c2=O)C1 |
| 92 | 50 to 500 | COC1CN(c2cc(-c3cn(C)c4cnc(NC(C)=O)cc34)nn(C(C)C)c2=O)C1 |
| 149 | – | COCCn1nc(-c2cn(C)c3cnc(NC(C)=O)cc23)cc(N2CC(OC)C2)c1=O |
| 59 | < 50 | CC(=O)Nc1cc2c(-c3cc(OCC(C)C)c(=O)n([C@@H](C)C(F)(F)F)n3)cn([C@H]3C[C@@H](C#N)C3)c2cn1 |
| 41 | < 50 | CC(=O)Nc1cc2c(-c3cc(N4CCC5(COC5)C4)c(=O)n(C4(C)CCC4)n3)cn(C3CC3)c2cn1 |
| 16 | < 50 | COCCOc1cc(-c2cn(C3CC3)c3cnc(NC(C)=O)cc23)nn([C@@H](C)C(F)(F)F)c1=O |
| 45 | < 50 | CC(=O)Nc1cc2c(-c3cc(OCC(C)(C)F)c(=O)n([C@@H](C)C(F)(F)F)n3)cn(C3CC3)c2cn1 |
| 39 | – | CC(=O)Nc1cc2c(-c3cc(OCC(C)C)c(=O)n(C(C)C(C)(F)F)n3)cn(C)c2cn1 (centres unmarked) |
| 91 | – | Cn1cc(-c2ccc(=O)n(C3(C)CCOC3)c2)c2cc(NC(N)=O)ncc21 (centres unmarked) |
